# How the values were obtained:
# Sequences of proteins named here, by UniProt entry; tags and fusion partners are left off. A change or cut given only in a name is not applied to a line headed by its entry.
# UniProt P16257, whole entry, looked up: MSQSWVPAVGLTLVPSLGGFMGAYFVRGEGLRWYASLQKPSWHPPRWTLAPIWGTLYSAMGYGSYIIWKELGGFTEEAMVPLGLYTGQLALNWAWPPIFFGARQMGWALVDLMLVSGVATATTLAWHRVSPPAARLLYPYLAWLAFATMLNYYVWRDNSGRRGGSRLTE
# UniProt P34972, whole entry: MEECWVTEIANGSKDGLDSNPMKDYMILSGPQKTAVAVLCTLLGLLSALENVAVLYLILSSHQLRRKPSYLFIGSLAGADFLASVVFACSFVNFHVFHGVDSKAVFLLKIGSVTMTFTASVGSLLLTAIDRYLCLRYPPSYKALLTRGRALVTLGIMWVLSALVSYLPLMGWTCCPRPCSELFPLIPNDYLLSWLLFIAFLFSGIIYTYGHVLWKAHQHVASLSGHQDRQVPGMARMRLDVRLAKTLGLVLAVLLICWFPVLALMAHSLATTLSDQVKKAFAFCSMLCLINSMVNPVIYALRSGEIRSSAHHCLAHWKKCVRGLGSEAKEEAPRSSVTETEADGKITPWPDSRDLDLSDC
# UniProt P13945: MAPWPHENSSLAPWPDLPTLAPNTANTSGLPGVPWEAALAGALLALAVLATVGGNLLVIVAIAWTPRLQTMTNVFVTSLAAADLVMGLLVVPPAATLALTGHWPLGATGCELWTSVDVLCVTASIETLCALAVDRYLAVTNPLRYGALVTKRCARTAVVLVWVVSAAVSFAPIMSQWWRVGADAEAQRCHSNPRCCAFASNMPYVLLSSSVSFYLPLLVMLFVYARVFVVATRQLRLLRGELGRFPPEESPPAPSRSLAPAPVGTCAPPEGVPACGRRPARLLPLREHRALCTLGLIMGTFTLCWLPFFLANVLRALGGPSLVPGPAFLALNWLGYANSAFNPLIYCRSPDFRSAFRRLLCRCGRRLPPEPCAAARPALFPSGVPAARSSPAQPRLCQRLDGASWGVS
# UniProt P18825, whole entry: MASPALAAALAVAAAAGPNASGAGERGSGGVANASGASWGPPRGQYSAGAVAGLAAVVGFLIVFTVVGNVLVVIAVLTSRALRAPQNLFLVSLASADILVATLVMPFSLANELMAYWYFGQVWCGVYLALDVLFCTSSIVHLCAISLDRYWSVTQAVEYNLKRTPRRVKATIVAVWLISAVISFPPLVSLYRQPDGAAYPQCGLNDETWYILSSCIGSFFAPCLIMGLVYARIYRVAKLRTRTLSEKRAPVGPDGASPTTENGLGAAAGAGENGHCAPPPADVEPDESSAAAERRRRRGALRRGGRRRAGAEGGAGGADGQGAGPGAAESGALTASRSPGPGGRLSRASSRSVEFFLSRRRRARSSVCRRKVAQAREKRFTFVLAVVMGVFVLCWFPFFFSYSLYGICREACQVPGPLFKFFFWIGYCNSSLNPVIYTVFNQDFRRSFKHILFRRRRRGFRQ
# UniProt P47901: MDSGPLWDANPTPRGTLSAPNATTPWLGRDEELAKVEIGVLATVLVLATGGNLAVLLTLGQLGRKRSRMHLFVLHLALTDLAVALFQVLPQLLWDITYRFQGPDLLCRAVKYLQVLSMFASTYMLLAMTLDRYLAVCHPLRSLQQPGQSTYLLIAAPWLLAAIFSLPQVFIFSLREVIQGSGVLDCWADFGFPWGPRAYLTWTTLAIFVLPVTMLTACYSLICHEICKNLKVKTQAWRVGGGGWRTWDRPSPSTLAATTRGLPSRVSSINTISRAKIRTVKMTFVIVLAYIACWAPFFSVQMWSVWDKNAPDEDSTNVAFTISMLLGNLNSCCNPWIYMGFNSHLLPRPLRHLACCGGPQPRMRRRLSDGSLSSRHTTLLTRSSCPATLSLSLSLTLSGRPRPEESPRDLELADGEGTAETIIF
# UniProt P08913, whole entry: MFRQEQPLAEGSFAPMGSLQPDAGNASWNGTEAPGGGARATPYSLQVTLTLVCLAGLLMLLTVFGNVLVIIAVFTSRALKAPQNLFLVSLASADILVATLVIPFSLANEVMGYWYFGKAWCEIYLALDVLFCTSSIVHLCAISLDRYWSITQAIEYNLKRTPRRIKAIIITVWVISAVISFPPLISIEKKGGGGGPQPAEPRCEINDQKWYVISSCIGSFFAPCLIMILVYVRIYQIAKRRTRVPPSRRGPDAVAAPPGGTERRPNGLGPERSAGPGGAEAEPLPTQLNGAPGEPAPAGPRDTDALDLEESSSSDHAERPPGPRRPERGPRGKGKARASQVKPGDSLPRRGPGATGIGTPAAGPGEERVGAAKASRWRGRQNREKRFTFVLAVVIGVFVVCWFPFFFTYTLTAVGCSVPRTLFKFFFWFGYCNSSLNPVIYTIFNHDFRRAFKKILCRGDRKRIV
# UniProt P37288, whole entry, looked up: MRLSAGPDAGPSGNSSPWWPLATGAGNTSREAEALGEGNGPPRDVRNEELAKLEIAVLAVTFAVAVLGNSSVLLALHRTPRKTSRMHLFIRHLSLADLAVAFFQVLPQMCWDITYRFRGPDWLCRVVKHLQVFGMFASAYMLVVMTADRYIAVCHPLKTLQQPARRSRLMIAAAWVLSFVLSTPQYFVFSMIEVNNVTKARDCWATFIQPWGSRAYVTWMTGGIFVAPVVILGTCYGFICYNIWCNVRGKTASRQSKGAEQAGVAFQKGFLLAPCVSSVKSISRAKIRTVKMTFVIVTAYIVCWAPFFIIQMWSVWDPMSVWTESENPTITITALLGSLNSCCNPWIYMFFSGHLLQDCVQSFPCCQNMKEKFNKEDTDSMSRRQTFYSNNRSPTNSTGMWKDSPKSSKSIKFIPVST
# UniProt P11229: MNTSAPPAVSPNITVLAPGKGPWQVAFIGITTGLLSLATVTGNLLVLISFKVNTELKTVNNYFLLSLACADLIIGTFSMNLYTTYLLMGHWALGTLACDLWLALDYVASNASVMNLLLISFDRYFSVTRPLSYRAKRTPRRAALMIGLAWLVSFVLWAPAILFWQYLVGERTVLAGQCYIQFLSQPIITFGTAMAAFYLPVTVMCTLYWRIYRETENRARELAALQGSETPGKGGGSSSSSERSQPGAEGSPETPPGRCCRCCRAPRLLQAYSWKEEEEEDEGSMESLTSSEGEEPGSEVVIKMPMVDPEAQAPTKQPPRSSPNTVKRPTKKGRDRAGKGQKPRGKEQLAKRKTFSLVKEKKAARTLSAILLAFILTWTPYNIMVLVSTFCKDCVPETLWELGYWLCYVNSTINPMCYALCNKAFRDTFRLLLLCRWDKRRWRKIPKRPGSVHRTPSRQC
# UniProt P31645, whole entry, looked up: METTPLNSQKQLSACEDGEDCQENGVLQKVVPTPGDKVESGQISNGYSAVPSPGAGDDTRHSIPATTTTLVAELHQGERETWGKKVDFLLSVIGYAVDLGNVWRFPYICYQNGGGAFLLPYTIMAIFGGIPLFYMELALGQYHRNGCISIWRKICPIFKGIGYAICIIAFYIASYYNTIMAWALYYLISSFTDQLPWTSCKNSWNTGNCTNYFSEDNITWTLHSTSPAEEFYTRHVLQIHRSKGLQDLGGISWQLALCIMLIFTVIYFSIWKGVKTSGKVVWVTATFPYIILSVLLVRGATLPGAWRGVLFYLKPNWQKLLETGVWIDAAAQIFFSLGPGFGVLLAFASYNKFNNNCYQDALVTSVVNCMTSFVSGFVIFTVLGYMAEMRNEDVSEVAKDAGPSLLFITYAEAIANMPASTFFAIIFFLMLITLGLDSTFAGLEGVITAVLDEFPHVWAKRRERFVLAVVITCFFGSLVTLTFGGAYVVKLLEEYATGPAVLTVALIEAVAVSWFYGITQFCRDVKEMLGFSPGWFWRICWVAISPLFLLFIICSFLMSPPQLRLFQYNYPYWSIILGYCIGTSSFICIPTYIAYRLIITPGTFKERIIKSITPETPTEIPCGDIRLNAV
# UniProt P18089, whole entry: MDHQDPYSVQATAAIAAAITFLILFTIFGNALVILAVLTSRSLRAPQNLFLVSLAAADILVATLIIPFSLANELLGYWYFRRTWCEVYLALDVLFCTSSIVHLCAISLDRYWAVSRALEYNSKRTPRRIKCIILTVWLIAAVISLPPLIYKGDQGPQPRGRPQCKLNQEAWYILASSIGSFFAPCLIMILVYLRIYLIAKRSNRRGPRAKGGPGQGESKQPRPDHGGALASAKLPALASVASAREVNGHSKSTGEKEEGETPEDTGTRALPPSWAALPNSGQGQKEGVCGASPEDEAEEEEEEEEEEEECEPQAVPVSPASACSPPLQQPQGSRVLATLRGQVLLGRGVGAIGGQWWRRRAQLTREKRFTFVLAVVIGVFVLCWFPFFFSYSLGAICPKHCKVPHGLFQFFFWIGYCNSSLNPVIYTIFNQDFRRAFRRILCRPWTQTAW
# UniProt P08173, whole entry: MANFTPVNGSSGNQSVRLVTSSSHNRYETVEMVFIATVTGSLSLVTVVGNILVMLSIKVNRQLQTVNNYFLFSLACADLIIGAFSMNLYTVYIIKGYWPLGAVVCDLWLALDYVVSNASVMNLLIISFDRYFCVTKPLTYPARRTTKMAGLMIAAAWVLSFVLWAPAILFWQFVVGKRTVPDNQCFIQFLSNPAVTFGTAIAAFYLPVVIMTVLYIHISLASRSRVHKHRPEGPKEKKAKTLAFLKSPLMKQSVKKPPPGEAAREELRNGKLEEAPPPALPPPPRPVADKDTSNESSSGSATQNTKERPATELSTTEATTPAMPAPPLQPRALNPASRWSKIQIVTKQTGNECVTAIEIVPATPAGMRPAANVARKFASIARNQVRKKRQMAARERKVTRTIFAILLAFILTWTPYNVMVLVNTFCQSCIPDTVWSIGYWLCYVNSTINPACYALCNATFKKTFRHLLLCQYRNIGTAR
# UniProt P25021, whole entry: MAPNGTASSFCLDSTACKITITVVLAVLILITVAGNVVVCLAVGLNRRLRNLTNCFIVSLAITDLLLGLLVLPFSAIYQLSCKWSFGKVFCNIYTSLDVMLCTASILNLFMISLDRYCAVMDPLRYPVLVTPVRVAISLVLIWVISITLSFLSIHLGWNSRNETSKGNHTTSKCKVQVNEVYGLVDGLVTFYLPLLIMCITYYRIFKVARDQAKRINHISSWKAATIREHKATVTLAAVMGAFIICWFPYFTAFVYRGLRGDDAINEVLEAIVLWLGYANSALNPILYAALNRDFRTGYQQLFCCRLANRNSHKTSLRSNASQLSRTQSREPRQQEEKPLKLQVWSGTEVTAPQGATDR
# UniProt P21728, whole entry: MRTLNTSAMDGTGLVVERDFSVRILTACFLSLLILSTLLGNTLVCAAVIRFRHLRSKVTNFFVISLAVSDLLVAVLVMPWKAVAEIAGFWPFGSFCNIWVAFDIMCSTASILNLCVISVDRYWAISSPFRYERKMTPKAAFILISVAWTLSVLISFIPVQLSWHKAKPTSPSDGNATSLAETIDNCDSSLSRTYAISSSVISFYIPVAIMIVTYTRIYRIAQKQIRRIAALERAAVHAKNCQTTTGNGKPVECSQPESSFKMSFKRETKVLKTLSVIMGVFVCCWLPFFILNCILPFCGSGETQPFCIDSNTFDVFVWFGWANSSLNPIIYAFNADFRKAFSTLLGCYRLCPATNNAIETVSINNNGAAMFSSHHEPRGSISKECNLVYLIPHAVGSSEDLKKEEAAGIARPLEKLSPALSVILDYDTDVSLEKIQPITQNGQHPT
# UniProt P46098, whole entry: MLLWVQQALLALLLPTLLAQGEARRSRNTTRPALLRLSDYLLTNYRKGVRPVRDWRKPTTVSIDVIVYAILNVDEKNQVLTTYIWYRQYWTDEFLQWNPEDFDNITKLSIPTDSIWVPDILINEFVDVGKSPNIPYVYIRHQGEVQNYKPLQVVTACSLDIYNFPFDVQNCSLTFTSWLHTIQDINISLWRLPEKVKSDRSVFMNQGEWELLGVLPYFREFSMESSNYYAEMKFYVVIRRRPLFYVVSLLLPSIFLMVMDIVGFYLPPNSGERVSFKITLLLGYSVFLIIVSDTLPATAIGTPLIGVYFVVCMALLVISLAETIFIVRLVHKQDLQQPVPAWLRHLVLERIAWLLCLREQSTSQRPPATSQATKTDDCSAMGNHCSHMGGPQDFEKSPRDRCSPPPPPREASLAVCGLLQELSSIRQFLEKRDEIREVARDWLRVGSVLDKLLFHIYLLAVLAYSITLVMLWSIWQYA
# UniProt P35367, whole entry: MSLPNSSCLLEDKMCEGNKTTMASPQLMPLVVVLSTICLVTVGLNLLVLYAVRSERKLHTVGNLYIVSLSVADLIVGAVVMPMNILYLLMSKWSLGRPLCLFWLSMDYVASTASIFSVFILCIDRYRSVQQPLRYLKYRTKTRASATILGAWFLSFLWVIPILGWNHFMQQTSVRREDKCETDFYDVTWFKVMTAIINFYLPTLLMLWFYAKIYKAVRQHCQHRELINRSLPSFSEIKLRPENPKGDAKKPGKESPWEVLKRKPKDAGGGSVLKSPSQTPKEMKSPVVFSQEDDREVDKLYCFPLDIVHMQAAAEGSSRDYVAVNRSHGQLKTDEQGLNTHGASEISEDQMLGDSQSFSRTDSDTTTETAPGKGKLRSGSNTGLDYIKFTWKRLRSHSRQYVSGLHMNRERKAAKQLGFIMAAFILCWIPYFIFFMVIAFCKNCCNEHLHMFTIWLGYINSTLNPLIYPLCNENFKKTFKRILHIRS
# Translocator protein = Translocator protein (Rattus norvegicus, UniProt P16257)
# Cannabinoid receptor 1 = Cannabinoid receptor 1 (Homo sapiens, UniProt P21554)
# Cannabinoid receptor 2 = Cannabinoid receptor 2 (Homo sapiens, UniProt P34972)
# [1] = target: Muscarinic acetylcholine receptor M3 (Homo sapiens) (UniProt P20309); settings: 10 uM
# [2] = target: Beta-3 adrenergic receptor (Homo sapiens) (UniProt P13945); settings: 10 uM
# [3] = target: 5-hydroxytryptamine receptor 2B (Homo sapiens) (UniProt P41595); settings: 10 uM
# [4] = target: Alpha-2C adrenergic receptor (Homo sapiens) (UniProt P18825); settings: 10 uM
# [5] = target: Vasopressin V1b receptor (Homo sapiens) (UniProt P47901); settings: 10 uM
# [6] = target: Delta-type opioid receptor (Homo sapiens) (UniProt P41143); settings: 10 uM
# [7] = target: Sodium-dependent noradrenaline transporter (Homo sapiens) (UniProt P23975); settings: 10 uM
# [8] = target: 5-hydroxytryptamine receptor 5A (Homo sapiens) (UniProt P47898); settings: 10 uM
# [9] = target: Alpha-2A adrenergic receptor (Homo sapiens) (UniProt P08913); settings: 10 uM
# [10] = target: Mu-type opioid receptor (Homo sapiens) (UniProt P35372); settings: 10 uM
# [11] = target: D(4) dopamine receptor (Homo sapiens) (UniProt P21917); settings: 10 uM
# [12] = target: Vasopressin V1a receptor (Homo sapiens) (UniProt P37288); settings: 10 uM
# [13] = target: Muscarinic acetylcholine receptor M1 (Homo sapiens) (UniProt P11229); settings: 10 uM
# [14] = target: Sodium-dependent serotonin transporter (Homo sapiens) (UniProt P31645); settings: 10 uM
# [15] = target: Sodium-dependent dopamine transporter (Homo sapiens) (UniProt Q01959); settings: 10 uM
# [16] = target: Vasopressin V2 receptor (Homo sapiens) (UniProt P30518); settings: 10 uM
# [17] = target: Beta-1 adrenergic receptor (Homo sapiens) (UniProt P08588); settings: 10 uM
# [18] = target: Alpha-1A adrenergic receptor (Homo sapiens) (UniProt P35348); settings: 10 uM
# [19] = target: Alpha-2B adrenergic receptor (Homo sapiens) (UniProt P18089); settings: 10 uM
# [20] = target: Histamine H3 receptor (Homo sapiens) (UniProt Q9Y5N1); settings: 10 uM
# [21] = target: Kappa-type opioid receptor (Homo sapiens, UniProt P41145)
# [22] = target: Alpha-1B adrenergic receptor (Homo sapiens) (UniProt P35368); settings: 10 uM
# [23] = target: D(2) dopamine receptor (Homo sapiens) (UniProt P14416); settings: 10 uM
# [24] = target: Muscarinic acetylcholine receptor M5 (Homo sapiens) (UniProt P08912); settings: 10 uM
# [25] = target: Muscarinic acetylcholine receptor M4 (Homo sapiens) (UniProt P08173); settings: 10 uM
# [26] = target: 5-hydroxytryptamine receptor 6 (Homo sapiens) (UniProt P50406); settings: 10 uM
# [27] = target: D(3) dopamine receptor (Homo sapiens) (UniProt P35462); settings: 10 uM
# [28] = target: Histamine H2 receptor (Homo sapiens) (UniProt P25021); settings: 10 uM
# [29] = target: 5-hydroxytryptamine receptor 2C (Homo sapiens) (UniProt P28335); settings: 10 uM
# [30] = target: 5-hydroxytryptamine receptor 7 (Homo sapiens) (UniProt P34969); settings: 10 uM
# [31] = target: 5-hydroxytryptamine receptor 1E (Homo sapiens) (UniProt P28566); settings: 10 uM
# [32] = target: Sigma non-opioid intracellular receptor 1 (Homo sapiens) (UniProt Q99720); settings: 10 uM
# [33] = target: D(1A) dopamine receptor (Homo sapiens) (UniProt P21728); settings: 10 uM
# [34] = target: 5-hydroxytryptamine receptor 3A (Homo sapiens) (UniProt P46098); settings: 10 uM
# [35] = target: Histamine H1 receptor (Homo sapiens) (UniProt P35367); settings: 10 uM
# [36] = target: Muscarinic acetylcholine receptor M2 (Homo sapiens) (UniProt P08172); settings: 10 uM
smiles,measurement,setting,value
Cc1c(C(=O)NC2(C#N)CCOCC2)nn(-c2ccc(Br)cc2)c1-c1ccccc1,Ki,Translocator protein,420 nM
Cc1c(C(=O)NC2(C#N)CCOCC2)nn(-c2ccccc2-c2ccccc2)c1-c1ccccc1,Ki,Translocator protein,2800 nM
same,Ki,Cannabinoid receptor 1,500 nM
Cc1c(C(=O)NC2(C#N)CCOCC2)nn(-c2ccccc2F)c1-c1ccccc1,Ki,Translocator protein,394 nM
same,Ki,Cannabinoid receptor 2,2180 nM
Cc1c(C(=O)NC2(C#N)CCOCC2)nn(-c2cccc(Br)c2)c1-c1ccccc1,Ki,Translocator protein,115 nM
same,Ki,Cannabinoid receptor 2,226 nM
Cc1c(C(=O)NC2(C#N)CCOCC2)nn(-c2ccccc2I)c1-c1ccccc1,Ki,Translocator protein,762 nM
Cc1c(C(=O)NC2(C#N)CCOCC2)nn(-c2ccccc2Br)c1-c1ccc(F)cc1,Ki,Translocator protein,492 nM
same,Ki,Cannabinoid receptor 1,55 nM
COc1ccc(-c2c(C)c(C(=O)NC3(C#N)CCOCC3)nn2-c2ccccc2Br)cc1,inhibition,[1],< 50%
same,inhibition,[2],< 50%
same,inhibition,[3],< 50%
same,inhibition,[4],< 50%
same,inhibition,[5],< 50%
same,inhibition,[6],< 50%
same,inhibition,[7],< 50%
same,inhibition,[8],< 50%
same,inhibition,[9],< 50%
same,Ki,Translocator protein,29 nM
same,inhibition,[10],< 50%
same,inhibition,[11],< 50%
same,inhibition,[12],< 50%
same,inhibition,[13],< 50%
same,inhibition,[14],< 50%
same,inhibition,[15],< 50%
same,inhibition,[16],< 50%
same,inhibition,[17],< 50%
same,inhibition,[18],< 50%
same,inhibition,[19],< 50%
same,inhibition,[20],< 50%
same,Ki,[21],798 nM
same,inhibition,[22],< 50%
same,inhibition,[23],< 50%
same,Ki,Cannabinoid receptor 2,1890 nM
same,inhibition,[24],< 50%
same,inhibition,[25],< 50%
same,inhibition,[26],< 50%
same,inhibition,[27],< 50%
same,Ki,Cannabinoid receptor 1,62.2 nM
same,inhibition,[28],< 50%
same,inhibition,[29],< 50%
same,inhibition,[30],< 50%
same,inhibition,[31],< 50%
same,inhibition,[32],< 50%
same,inhibition,[33],< 50%
same,inhibition,[34],< 50%
same,inhibition,[35],< 50%
same,inhibition,[36],< 50%
Cc1c(C(=O)NC2(C#N)CCOCC2)nn(-c2ccccc2Br)c1-c1ccccc1,Ki,Translocator protein,576 nM
COc1ccc(-c2c(C)c(C(=O)NC3(C#N)CCOCC3)nn2-c2cccc(Br)c2)cc1,Ki,Translocator protein,61.8 nM
Cc1c(C(=O)NC2(C#N)CCCCC2)nn(-c2ccccc2Br)c1-c1ccccc1,Ki,Translocator protein,75.2 nM
COc1ccc(-c2c(Br)c(C(=O)NC3(C#N)CCOCC3)nn2-c2cccc(Br)c2)cc1,Ki,Translocator protein,155 nM
same,Ki,Cannabinoid receptor 2,175 nM
same,Ki,Cannabinoid receptor 1,356 nM
COc1ccc(-c2c(C)c(C(=O)NC3(C#N)CCOCC3)nn2-c2ccccc2F)cc1,Ki,Translocator protein,132 nM
Cc1c(C(=O)NC2(C#N)CCOCC2)nn(-c2ccccc2Br)c1-c1cccc(F)c1,Ki,Translocator protein,693 nM

# — ChEMBL document CHEMBL1764973 (J Med Chem, 2011)
